Measured values reported in patent publication US20220317138A1, “METHODS FOR DETERMINING THE CONCENTRATION OF A CARBAPENEM ANTIBIOTIC IN A BIOLOGICAL SAMPLE” (priority 2019, published 2022).

Chains of the proteins cited; added tags and fusions are not shown. Residues count along the entry.
UniProt Q6XEC0, 23-265 limits assumed: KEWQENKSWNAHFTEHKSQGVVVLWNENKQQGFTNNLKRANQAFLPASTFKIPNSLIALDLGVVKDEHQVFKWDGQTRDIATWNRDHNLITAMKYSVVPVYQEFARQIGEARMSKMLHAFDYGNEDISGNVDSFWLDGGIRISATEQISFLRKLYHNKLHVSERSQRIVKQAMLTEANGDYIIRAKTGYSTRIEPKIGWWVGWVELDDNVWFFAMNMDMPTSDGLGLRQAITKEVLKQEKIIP

Target: beta-lactamase class D OXA-48 (Klebsiella pneumoniae, UniProt Q6XEC0)
Settings: second drug alone in ultrafiltrated serum at 10 times recommended blood concentration, result expressed as meropenem concentration, theoretically zero

CCC(=O)N(c1ccccc1)C1(COC)CCN(CCc2cccs2)CC1 was tested, and the “Average [meropenem]” value (average of three replicates) was 0.08 mg/L, the “[meropenem] (mg/L) Replicates 1” value (replicate 1) was 0.00 mg/L and the “[meropenem] (mg/L) Replicates 2” value (replicate 2) was 0.12 mg/L. The “[meropenem] (mg/L) Replicates 3” value (replicate 3) was 0.12 mg/L.

This is a selection: effects in other tests are not listed, and their absence says nothing.
